In ChEMBL document CHEMBL2413047, “Identification of GNE-293, a potent and selective PI3Kδ inhibitor: navigating in vitro genotoxicity while improving potency and selectivity” (Bioorg Med Chem Lett, 2013):
pIC50: −log10 of the molar value.

Target: T1, Phosphatidylinositol 4,5-bisphosphate 3-kinase catalytic subunit delta isoform (Homo sapiens, UniProt O00329)
T1 sequence (O00329 whole entry): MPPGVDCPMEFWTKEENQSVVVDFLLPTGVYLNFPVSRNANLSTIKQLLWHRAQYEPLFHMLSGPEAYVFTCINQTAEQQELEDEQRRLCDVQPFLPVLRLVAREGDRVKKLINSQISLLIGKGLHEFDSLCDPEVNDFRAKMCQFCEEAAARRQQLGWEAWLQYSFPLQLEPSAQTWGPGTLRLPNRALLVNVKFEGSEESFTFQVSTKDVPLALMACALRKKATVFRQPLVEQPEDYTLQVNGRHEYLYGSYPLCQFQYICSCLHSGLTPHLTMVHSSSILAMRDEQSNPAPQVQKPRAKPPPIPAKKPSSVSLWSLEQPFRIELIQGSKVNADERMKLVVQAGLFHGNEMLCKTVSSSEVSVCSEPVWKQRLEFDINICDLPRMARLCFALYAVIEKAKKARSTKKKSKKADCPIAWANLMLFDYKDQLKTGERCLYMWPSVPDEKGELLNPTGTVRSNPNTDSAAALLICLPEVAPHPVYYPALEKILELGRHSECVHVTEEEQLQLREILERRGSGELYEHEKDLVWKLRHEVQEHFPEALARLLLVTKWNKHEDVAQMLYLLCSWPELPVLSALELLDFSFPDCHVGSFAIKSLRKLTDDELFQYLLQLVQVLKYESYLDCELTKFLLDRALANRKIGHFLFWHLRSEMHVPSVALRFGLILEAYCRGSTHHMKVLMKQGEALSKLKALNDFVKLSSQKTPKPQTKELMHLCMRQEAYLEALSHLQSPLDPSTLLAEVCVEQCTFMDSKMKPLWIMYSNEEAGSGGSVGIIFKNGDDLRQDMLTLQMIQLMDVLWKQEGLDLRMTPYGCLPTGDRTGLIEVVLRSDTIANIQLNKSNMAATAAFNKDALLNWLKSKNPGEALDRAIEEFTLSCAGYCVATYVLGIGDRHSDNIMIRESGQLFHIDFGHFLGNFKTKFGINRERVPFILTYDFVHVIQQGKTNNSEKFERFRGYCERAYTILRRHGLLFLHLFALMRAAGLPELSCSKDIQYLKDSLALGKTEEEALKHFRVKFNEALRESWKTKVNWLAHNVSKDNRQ
Assay: Inhibition of PI3Kdelta in human whole blood assessed as expression of CD69 in B cell preincubated for 1 hr by flow cytometry
Format: tissue-based

pIC50: 7.92
Structure (SMILES): CCc1nc2ccccc2n1-c1nc(N2CCOCC2)c2nc(OC3CN(C(=O)C(C)C)C3)n(C)c2n1
